# Results reported in PubChem BioAssay (NCATS).
# Only a part is listed here, and it is no random draw. Some of these compounds have results that are not shown, active ones among them. Results filed as inconclusive are left out. Activity calls are given as the source filed them. Calls come from the whole dose curve; as a rule, active = well fitted curve in the direction sought with a large enough effect; inconclusive = small, poorly fitted or top-dose-only effect, or another doubt; inactive = no such curve, though single readings can be large; an effect the other way counts as inactive or inconclusive.
# Tests used:
# [1] = molecular target: Aldehyde dehydrogenase, mitochondrial (Homo sapiens) (UniProt P05091); assay: qHTS for Inhibitors of the Aldehyde Dehydrogenase Family (ALDH2) Primary screen (AID 2061308); details: ALDH2 enzyme inhibition qHTS, 1536-well; at 56 µM (top of the series);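 note: plate controls were vehicle for no effect and reference inhibitor for full effect; nearly all actives have a fitted effect of over 55% in size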
# [2] = molecular target: Retinaldehyde dehydrogenase 3 (Homo sapiens) (UniProt P47895); assay: qHTS for Inhibitors of the Aldehyde Dehydrogenase Family (ALDH1A3) Primary screen (AID 2061315);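 note: plate controls were DMSO vehicle for no effect and reference inhibitor for full effect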; details: S. pombe CHP2027 cells, fluorescence laser cytometry, 18 h; at 56 µM (top of the series)
smiles,measurement,setting,value
O=C(C1CCC1)N1CCN(C/C=C/c2ccccc2)CC1,"activity change, negative = inhibition",[1],inactive: -0.952%
same,"activity change, negative = inhibition",[2],inactive: -3.06%
